{
  "source": "patent US20090123956A1",
  "about": "“Measurement of the oxidants-antioxidants balance in liquids” (Samsung Electronics Co., Ltd., priority 2006, published 2009)",
  "origin": "cited, not measured here",
  "conditions": "change in absorbance at 450 nm (reference 620 or 570 nm) at equivalent molar concentration, uric acid = 1",
  "data": [
    {"substance": "albumin", "values": [
      {"measurement": "relative activity in compare with uric acid", "result": "~0.6"}
    ]}
  ]
}
